Literature values, collected in patent US9393219B2, “Monophenols and benzenediols sensitization of immune system against haptenized melanoma antigens” (ACADEMISCH ZIEKENHUIS BIJ DE UNIVERSITEIT VAN AMSTERDAM, priority 2005, dated 2016).

Tested on: metastatic melanoma
Conditions: cited from earlier work

## IL-2: high-dose interleukin (IL)-2, immunotherapy for metastatic melanoma
high-dose IL-2
  cure rate: about 5%
immunotherapy
  response rate: approximately 15%
